Measured values reported in patent US6365759B1, “Intermediate compounds for preparing macrocylcic analogs” (Eisai Co., Ltd., priority 1998, dated 2002).

System: U937 human histiocytic lymphoma cells
Experiment: U937 Mitotic Block Reversibility Assay
Format: cell-based

C=C1CC2CCC34CC5OC6C(OC7CCC(CC(=O)CC8C(CC9OC(CCC1O2)CC(C)C9=C)OC(C(O)CO)C8C)OC7C6O3)C5O4 (stereo not drawn) [Compound B2090]
Complete Mitotic Block 0 hour: 2 nM
Complete Mitotic Block 10 hour: 10 nM
Reversibility Ratio: 5.0
